Assay results as given in US8012504B2, “Sustained release of guaifenesin combination drugs” (priority 2000, dated 2011).
Structures can show the parent of a compound that is named as a salt.

Experiment: Example 16: interaction potential, Mucinex and Sudafed 12 Hour alone or together, 3-way crossover
Type: in vivo, human
Conditions: mean; 120 mg along with 1200 mg guaifenesin compared to 120 mg pseudoephedrine alone
Experimental: In another study drug interaction potential for combination drugs was examined. The interaction potential for 1200 mg guaifenesin and 120 mg Pseudoephedrine Hydrochloride was compared to reference in an open label, single dose, randomized, 3-way crossover study using 36 subjects.
Group B received a 120 mg controlled release pseudoephedrine product (Sudafed® 12 Hour) with 240 mL of room-temperature water after an overnight fast.

CN[C@@H](C)[C@@H](O)c1ccccc1 [Pseudoephedrine, Pseudoephedrine hydrochloride]
Ratio of pseudoephedrine Clearance: 103.99%
Ratio of pseudoephedrine Half-life: 103.30%
